Where two headings read alike, the source gives them in different places.

Amino acid sequences for entries named in this document (tags omitted). Chains listed by the source or under a name are the forms on record and can include a tag or linker.
UniProt P35968, with tags, fused parts or gaps DEL940-989/E990V limits assumed: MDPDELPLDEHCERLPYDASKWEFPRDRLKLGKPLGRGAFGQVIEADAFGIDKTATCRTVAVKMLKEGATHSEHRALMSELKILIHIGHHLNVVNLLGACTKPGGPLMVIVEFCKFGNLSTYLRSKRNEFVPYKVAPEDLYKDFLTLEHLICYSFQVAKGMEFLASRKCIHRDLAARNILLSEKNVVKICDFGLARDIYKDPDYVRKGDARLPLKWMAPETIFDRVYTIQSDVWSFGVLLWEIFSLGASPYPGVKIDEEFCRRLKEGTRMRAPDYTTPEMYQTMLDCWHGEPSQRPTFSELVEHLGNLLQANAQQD

Series [1] can be described thus: Determination of inhibitor concentration in mouse plasma after intraperitoneal and oral dosing. Format: in vivo.
Series [2] deals with phosphorylated VEGF-R2Δ50 (FLVK-P) (Homo sapiens, UniProt P35968, DEL940-989/E990V). Description: VEGF-R2 coupled spectrophotometric assay, phosphorylated VEGF-R2Δ50 (FLVK-P).
A further series addresses CDK2/Cyclin A (Homo sapiens, UniProt P24941). Description: CDK2/Cyclin A assay ([32P]ATP, Rb fragment). Format: biochemical. Conditions: Table 3.
Where [3] appears, read: 25 mg/kg, vehicle PEG400:H2O pH 2.3 30:70.

As for `O=C(Nc1cccc(Oc2ccc3c(/C=C/c4c[nH]cn4)n[nH]c3c2)c1)c1ccccc1` [Example 32(a), 6-[3-Benzamidophenoxy]-3-E-[2-(1H-imidazol-4-yl)ethenyl]-1H-indazole], the “plasma half-life (T1/2)” value in series [1] (setting [3]) is 2.1 h.
The Cmax is the peak of the concentration-time curve. For `O=C(NCc1cccc(F)c1)c1ccccc1Sc1ccc2c(/C=C/c3ccccn3)n[nH]c2c1` [Example 35(ff)], in series [1] (setting [3]), the AUClast result is “Blq”, the Cmax result was “Blq”, the “Cmin (7 hr conc.)” value is “blq” and the “plasma half-life (T1/2)” value is given as “blq”.
Consider `CCn1nc(C)cc1C(=O)Nc1cc(C(=O)c2ccc3c(/C=C/c4ccccn4)n[nH]c3c2)ccc1C` [Example 41(ee), 6-[3-((1-Ethyl-3-methyl-1H-pyrazol-5-yl)carboxanido)-4-methylbenzoyl]-3-E-[2-(pyridin-2-yl)ethenyl]-1H-indazole], for which the peak concentration (Cmax) in series [1] (female, 50 mg/kg, vehicle PEG400:H2O pH 2.3 30:70, read-out: Cmax) was above 5000 ng/mL.
The Ki is a measure of affinity in units of concentration, obtained from inhibition or displacement. Read a high Ki as lower affinity. In turn, `Nc1cccc(C(=O)c2ccc3c(/C=N/n4cccc4)n[nH]c3c2)c1` [Example 44] yielded a Ki in series [2] of 9.6 nM.
`C(=C\c1n[nH]c2cc(-c3ccnc4[nH]ccc34)ccc12)/c1ccccc1` [Example 52(b), 6-(7-Azaindol-4-yl)-3-E-styryl-1H-indazole] yielded a Ki on CDK2/Cyclin A of 241 nM.

The values above are taken from patent US6534524B1, “Indazole compounds and pharmaceutical compositions for inhibiting protein kinases, and methods for their use” (Agouron Pharmaceuticals, Inc., priority 1999, dated 2003).
